The assay relates to P. falciparum Cam3.II lines. As to the kind of experiment: Isobologram analyses (fixed-ratio drug combinations). It counts as cell-based, Plasmodium falciparum. The following applies: combined with WLL; Trophozoites, 3 hr exposure; Cam3.II K13C580Y. The procedure:
Assays were performed with fixed ratios of drug combinations (1:0, 4:1, 2:1, 1:1, 1:2, 1:4, and 0:1), tested in duplicate. Combinations were prepared from 16×IC50 drug stocks and tested across a range of two-fold dilutions. Assays were conducted with asynchronous cultures exposed for 72 hr or with tightly synchronized rings or trophozoites (tested at 0–3 hr or 24–27 hr post-invasion, respectively) exposed for 3 hr. Post-pulse drug washouts were conducted as described above for in vitro determination of IC50 levels. IC50 values were derived for each compound tested alone, and fractional IC50 (FIC50) values were determined for each compound tested in combination (FIC50 = […]) and plotted for each drug combination. For each combination, the mean of the sums of FIC50 values at each combination (mean ΣFIC50) was also calculated and the results illustrated using heat maps.

In the case of `CN(C)c1ccc2nc3ccc(=[N+](C)C)cc-3sc2c1` [MB, methylene blue], the “Mean of the sums of FIC50 (mean ΣFIC50)” value is 1.01.

Source of the values: PMC6553790 (PLoS Pathogens, 2019).
